Measured values as given in patent US5879896A, “Method of screening for inhibitors of human thyrotropin releasing hormone (TRH) receptor” (Takeda Chemical Industries, Ltd., priority 1993, dated 1999).

Legend:
human TRH receptor [1] = target: T1, human TRH receptor (Homo sapiens, UniProt P34981); assay: Antagonism of [3H]TRH binding in CHO dhfr- cells transformed with human TRH receptor DNA (Examples 5 and 6); design: translation frame (open reading frame) of the human TRH receptor was constructed on pUC118; expressed in transfected cells; host or cells: CHO dhfr- cells (plasmid pAKKO1.11 with the human TRH receptor open reading frame); details: 10 nM [3H]TRH, 60 min
T1 sequence (P34981 1-398): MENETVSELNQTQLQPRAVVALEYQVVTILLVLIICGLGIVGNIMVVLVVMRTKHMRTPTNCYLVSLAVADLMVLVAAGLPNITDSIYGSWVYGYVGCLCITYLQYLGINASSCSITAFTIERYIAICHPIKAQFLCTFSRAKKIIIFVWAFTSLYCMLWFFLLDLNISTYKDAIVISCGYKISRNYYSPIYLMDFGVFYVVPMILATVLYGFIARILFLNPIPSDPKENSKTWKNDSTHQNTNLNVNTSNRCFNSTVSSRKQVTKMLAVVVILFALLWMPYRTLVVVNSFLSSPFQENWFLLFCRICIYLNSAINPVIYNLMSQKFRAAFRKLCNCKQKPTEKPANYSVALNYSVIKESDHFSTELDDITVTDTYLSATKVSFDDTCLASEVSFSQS

human TRH receptor [2] = target: T1, human TRH receptor; assay: Release of [3H]-labeled arachidonic acid from CHO cells into which human TRH receptor DNAs were introduced (Example 7); assay type: cell-based; design: translation frame (open reading frame) of the human TRH receptor was constructed on pUC118; expressed in transfected cells; host or cells: CHO dhfr- cells (plasmid pAKKO1.11 with the human TRH receptor open reading frame)
Procedure: CHO cells into which the human TRH receptor DNAs obtained in Example 4 were subcultured at a density of 1.0×10^6 cells/well to a 12-well tissue culture plate (Sumitomo Bakelite) and cultivated for 24 hours. The medium was removed and replaced by a fresh medium. Then, [^3 H] […] arachidonic acid (du Pont/NEN, specific activity: 60-100 Ci/mmol) was added to give a concentration of 0.5 μCi/well. After addition of arachidonic acid, the cells were further cultivated for 24 hours, and washed three times with Hanks' balanced salt solution (HBSS) supplemented with 0.05% BSA. Thereafter, 495 μl/well of HBSS supplemented with 0.05% BSA was added thereto. Then, 5 μl of a test solution was added thereto, and incubation was conducted for 30 minutes at room temperature to release arachidonic acid in the medium. HBSS (400 μl) of the supernatant was recovered, and mixed with liquid scintillator A (Wako Pure Chemical Industries). The amount of released [^3 H]-labeled arachidonic acid was measured by use of a liquid scintillation counter (Beckmann).
Further, in the receptor binding experiment of Example 6, the releasing activity of arachidonic acid was measured using 4 kinds of compounds strongly that can antagonize the binding of [^3 H] TRH (compound Nos. 10, 13, 16 and 18).

Substance | Antagonistic Rate (%) at Each Concentration (-log M) (human TRH receptor [1]; -log M = 3, 1000 µM) [%] | Antagonistic Rate (%) at Each Concentration (-log M) (human TRH receptor [1]; -log M = 4, 100 µM) [%] | Antagonistic Rate (%) at Each Concentration (-log M) (human TRH receptor [1]; -log M = 5) [%] | Antagonistic Rate (%) at Each Concentration (-log M) (human TRH receptor [1]; -log M = 6, 1 µM) [%] | Antagonistic Rate (%) at Each Concentration (-log M) (human TRH receptor [1]; -log M = 7, 0.1 µM) [%] | Antagonistic Rate (%) at Each Concentration (-log M) (human TRH receptor [1]; -log M = 8) [%] | Antagonistic Rate (%) at Each Concentration (-log M) (human TRH receptor [1]; -log M = 9, 0.001 µM) [%] | Antagonistic Rate (%) at Each Concentration (-log M) (human TRH receptor [1]; -log M = 10, 0.0001 µM) [%] | Releasing activity of arachidonic acid, in words (human TRH receptor [2]; 10 μM, 30 minutes, room temperature (FIG. 11)) | Agonist activity to the human TRH receptor, in words (human TRH receptor [2]; concluded from arachidonic acid release at 10 μM)
Otc His Pro NHMe [Compound 11] | 99.6 | 99.8 | 79.8 | 45.4 | 11.9 | 1.1 | 6.6 | 6.6 |  | 
Blc His Pro [Compound 7] |  | 0.7 | -0.1 |  |  |  |  |  |  | 
Kpc His Pro NHBu [Compound 10] |  |  |  |  |  |  |  |  | promoted releasion of arachidonic acid at a concentration of 10 μM similarly to TRH | agonist activity to the human TRH receptor
Blc His Pro NMBu [Compound 9] | 99.4 | 95.8 | 72.8 | 33.8 | 7.6 | 4.9 | 6.4 | 5.3 |  | 
pGlu His (EH; N-terminal pyroglutamic acid (pGlu)) [Compound 1] |  | -6.7 | -2.6 |  |  |  |  |  |  | 
Blc His Pro NHMe [Compound 8] | 79.8 | 35.1 | 4.6 | 0.7 | 4.8 | 6.7 | 4.7 | 6.1 |  | 
Blc His Pro NH2 [Compound 5] | 98.9 | 89.9 | 54.0 | 12.2 |  | -2.2 | -0.8 | -2.1 |  | 
